Test results taken from patent publication US6472373B1, “Combination therapy for eradicating detectable HCV-RNA in antiviral treatment naive patients having chronic hepatitis C infection” (priority 1997, dated 2002).

Assays:
Type in all cases: in vivo, patients
chronic hepatitis C [1] = assay: Study 2: overall response (sustained HCV-RNA loss plus Knodell HAI improvement); conditions: 48 weeks treatment
serum HCV-RNA [2] = assay: Study 1: virologic response by serum HCV-RNA/qPCR
chronic hepatitis C [3] = assay: Study 1: overall response (sustained HCV-RNA loss plus Knodell HAI improvement)
Source text: The primary efficacy variable was the overall response defined as loss of serum HCVRNA/qPCR (<100 copies/mL) as measured at 24 weeks following the end of therapy.
The End of Follow-up overall response rate is a composite of the loss of serum HCV-RNA(qPCR) and change in liver histology at end of follow-up (24 weeks following the end of treatment). A patient was classified as an overall responder if HCV-RNA(PCR) was negative at the 24 week posttreatment evaluation and the posttreatment Knodell HAI inflammation score (sum of categories I+II+III) had improved if the posttreatment value had decreased by 2 or more units relative to the pretreatment score. The percent of sustained virologic responders by time to first negative HCV-RNA, the End of Follow-up (sustained) virologic response, histologic response, and overall response rates are summarized in Tables 2, 3, 4 and 5.
When the study was designed, it was recognized that because liver biopsy is an invasive procedure that it would be unlikely that posttreatment liver biopsies would be obtained for all patients. Therefore, the protocol and statistical analysis plan specified that the analysis for overall response would be based on data for all treated patients and will be estimated by a maximum likelihood method (MLE) for patients whose overall response status could not be determined, ie, patients with negative HCV-RNA and missing (posttreatment) biopsy evaluations. The protocol also specified that an additional analysis would be performed on patients with both pretreatment and posttreatment biopsy results (ie, patients with complete data). The overall response is a composite of sustained loss of detectable HCV-RNA and improvement in liver histology at End of Follow-Up. Overall response is summarized in Table 5 based on the following analyses: […]

serum HCV-RNA [4] = assay: Study 2: virologic response by serum HCV-RNA/qPCR; conditions: 48 weeks treatment
[5] = Study 1, all treated, 24 weeks treatment
[6] = Study 1, all treated, 48 weeks treatment

INTRON A + Placebo: INTRON A (interferon alpha-2b, recombinant) 3 million IU SC TIW plus placebo matching ribavirin; interferon monotherapy comparator
Overall Response Rate, ML Estimate (chronic hepatitis C [1]): 17% | Overall Response Rate, Patients with Complete Biopsy Data (chronic hepatitis C [1]): 17% (32/191) | Overall Response Rate, treat missing as failures (chronic hepatitis C [1]): 12% (32/278) | Sustained Response (serum HCV-RNA [2]; Study 1, Genotype 1, >2 million copies/ml, 48 weeks treatment): 3% (3/119) | Sustained Response (serum HCV-RNA [2]; Study 1, Genotype 1, ≦2 million copies/ml, 24 weeks treatment): 4% (2/54) | Sustained Response (serum HCV-RNA [2]; Study 1, Genotype 1, ≦2 million copies/ml, 48 weeks treatment): 19 % (8/43) | Sustained Virologic Response Rates by HCV Genotype (serum HCV-RNA [2]; Study 1, Genotype 2, 24 weeks treatment): 18% (7/38) | Sustained Virologic Response Rates by HCV Genotype (serum HCV-RNA [2]; Study 1, Genotype 2, 48 weeks treatment): 35% (15/43 | Sustained Virologic Response Rates by HCV Genotype (serum HCV-RNA [2]; Study 1, Genotype 3, 24 weeks treatment): 8% (2/24) | Sustained Virologic Response Rates by HCV Genotype (serum HCV-RNA [2]; Study 1, Genotype 3, 48 weeks treatment): 16% (3/19) | Sustained Virologic Response Rates by HCV Genotype (serum HCV-RNA [2]; Study 1, Genotype 4-6, 24 weeks treatment): 0% | Sustained Virologic Response Rates by HCV Genotype (serum HCV-RNA [2]; Study 1, Genotype 4-6, 48 weeks treatment): 0% | Sustained Response (serum HCV-RNA [2]; Study 1, Other Genotypes, >2 million copies/ml, 24 weeks treatment): 11% (5/44) | Sustained Response (serum HCV-RNA [2]; Study 1, Other Genotypes, >2 million copies/ml, 48 weeks treatment): 19% (8/43) | Sustained Response (serum HCV-RNA [2]; Study 1, Other Genotypes, ≦2 million copies/ml, 24 weeks treatment): 25% (5/20) | Sustained Response (serum HCV-RNA [2]; Study 1, Other Genotypes, ≦2 million copies/ml, 48 weeks treatment): 50% (10/20) | Sustained Response (serum HCV-RNA [2]; Study 1, Other Genotypes, 48 weeks treatment): 29% (18/63) | Non Responder at End of Follow-up (serum HCV-RNA [2]; [5]): 165 (71%) | Relapser at End of Follow-up (relapse rate) (serum HCV-RNA [2]; [5]): 53 (23%) | Serum HCV-RNA Positive at EOT, proportion of patients (serum HCV-RNA [2]; [5]): 165 (71%) | Sustained Responders at End of Follow-up (24 weeks following EOT) (serum HCV-RNA [2]; [5]): 13 (6%) | Non Responder at End of Follow-up (serum HCV-RNA [2]; [6]): 170 (76%) | Relapser at End of Follow-up (relapse rate) (serum HCV-RNA [2]; [6]): 26 (12%) | Serum HCV-RNA Negative at EOT, proportion of patients (serum HCV-RNA [2]; [6]): 54 (24%) | Serum HCV-RNA Positive at EOT, proportion of patients (serum HCV-RNA [2]; [6]): 171 (76%) | Sustained Responders at End of Follow-up (24 weeks following EOT) (serum HCV-RNA [2]; [6]): 29 (13%) | Relapser at End of Follow-up (relapse rate) (serum HCV-RNA [2]; Study 1, all treated, 48 weeks treatment, listed as Intron A plus placebo): 12% | Percent of Sustained Virologic Responders by Time to First No Detectable HCV-RNA Levels (serum HCV-RNA [2]; Study 1, first no-detectable HCV-RNA at Week 4, 24 weeks treatment): 48% (10/21) | Percent of Sustained Virologic Responders by Time to First No Detectable HCV-RNA Levels (serum HCV-RNA [2]; Study 1, first no-detectable HCV-RNA at Week 4, 48 weeks treatment): 70% (14/20) | Percent of Sustained Virologic Responders by Time to First No Detectable HCV-RNA Levels (serum HCV-RNA [2]; Study 1, first no-detectable HCV-RNA at Week 12, 24 weeks treatment): 9% (3/32) | Percent of Sustained Virologic Responders by Time to First No Detectable HCV-RNA Levels (serum HCV-RNA [2]; Study 1, first no-detectable HCV-RNA at Week 12, 48 weeks treatment): 35% (11/31) | Percent of Sustained Virologic Responders by Time to First No Detectable HCV-RNA Levels (serum HCV-RNA [2]; Study 1, first no-detectable HCV-RNA at Week 24, 24 weeks treatment): 0% (0/22) | Percent of Sustained Virologic Responders by Time to First No Detectable HCV-RNA Levels (serum HCV-RNA [2]; Study 1, first no-detectable HCV-RNA at Week 24, 48 weeks treatment): 22% (4/18) | Sustained Response (serum HCV-RNA [2]; Study 1, viral load >2 million copies/mL, 24 weeks treatment): 4% (6/157) | Sustained Response (serum HCV-RNA [2]; Study 1, viral load >2 million copies/mL, 48 weeks treatment): 7% (11/162) | Sustained Response (serum HCV-RNA [2]; Study 1, viral load ≦2 million copies/ml, 24 weeks treatment): 9% (7/74) | Sustained Response (serum HCV-RNA [2]; Study 1, viral load ≦2 million copies/ml, 48 weeks treatment): 29% (18/63) | Proportion of patients with eradication of HCV-RNA in the serum 24 weeks following the End of Treatment (serum HCV-RNA [2]; printed in the Study 1 results text, treatment duration not stated): 16% | Overall Response Rate, maximum likelihood estimate (chronic hepatitis C [3]; 24 weeks treatment): 5% | Overall Response Rate, patients with complete data (chronic hepatitis C [3]; 24 weeks treatment): 5% | Overall Response Rate, maximum likelihood estimate (chronic hepatitis C [3]; 48 weeks treatment): 9% | Overall Response Rate, patients with complete data (chronic hepatitis C [3]; 48 weeks treatment): 11% | Overall Response Rate, treat missing as failures (chronic hepatitis C [3]; 48 weeks treatment): 8% | Non Responders at EOFU (serum HCV-RNA [4]): 66% (184) | Relapse at EOFU (serum HCV-RNA [4]): 15% (41) | Serum HCV-RNA Negative at EOT, proportion of patients (serum HCV-RNA [4]): 33% (93) | Serum HCV-RNA Positive at EOT, proportion of patients (serum HCV-RNA [4]): 65% (185) | Sustained Virologic Response at EOFU (serum HCV-RNA [4]): 19% (53)
